Broadly, the inhibition is the drop in the measured response relative to a control, in per cent.

By UniProt entry, the sequences of proteins in these tests, tags left out.
UniProt Q96LD8, whole entry: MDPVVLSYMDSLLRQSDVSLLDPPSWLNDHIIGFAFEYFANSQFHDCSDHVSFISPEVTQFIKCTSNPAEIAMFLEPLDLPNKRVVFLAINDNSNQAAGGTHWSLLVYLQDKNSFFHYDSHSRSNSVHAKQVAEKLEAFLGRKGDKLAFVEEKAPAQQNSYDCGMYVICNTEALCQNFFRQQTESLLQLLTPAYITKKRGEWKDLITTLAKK

Each structure is given as a SMILES string. This is a selection; strong and weak results do not stand in their true shares. The source made the active and inactive calls. Rule as the data show it: active = inhibition above about 50%; inactive = the rest.

This assay concerns the target Sentrin-specific protease 8 (Homo sapiens) (UniProt Q96LD8). The assay can be described thus: SENP8 protease inhibitors, primary screen, biochemical, luminescence (AID 2540). Conditions: purified SENP8, Z-RLRGG-aminoluciferin cleavage, at 10 µM, active compounds read high.
Take `COc1ccc(CN(CCCl)CCCl)cc1Cl`: the inhibition was inactive: -2.36%.

`CN(C)c1cccc(C(=O)NCC2(N3CCCCC3)CCCCC2)c1`: the inhibition was inactive: -3.23%.

For the compound `CC(C)c1ccc(NC2CCN(C(=O)OC(C)(C)C)CC2)cc1`, the inhibition is inactive: 2.73%.

In the case of `COc1cc(OC)c(C(=O)NCC2(N(C)C)CCCCC2)cc1OC`, the inhibition was inactive: -7.38%.

As for `O=C(NCC1(N2CCOCC2)CCCCC1)c1cc(F)c(F)cc1Cl`, the inhibition is inactive: -10.9%.

In the case of `CN1CCC(Nc2cccc(F)c2)CC1`, the inhibition was inactive: -1.22%.

In the case of `O=C(NCC1(N2CCCCC2)CCCCC1)c1cncc(Br)c1`, the inhibition was inactive: 2.29%.

As to `O=C(NCC1(N2CCCCC2)CCCCC1)c1ccc(OC(F)F)cc1`, the inhibition was inactive: -9.78%.

For `CSc1ccc(C(=O)NCC2(N3CCOCC3)CCCCC2)cc1`, the inhibition is inactive: -14.6%.

Turning to `O=C(NCC1(N2CCCCC2)CCCCC1)c1cccc([N+](=O)[O-])c1`, the inhibition was inactive: -1.95%.

For `CCN1CCC(Nc2ccc(Cl)cc2)CC1`, the inhibition was inactive: 1.53%.

With `N#CC1(Nc2ccccc2)CCN(CCc2ccccc2)CC1`, the inhibition was inactive: -3.61%.

With `O=C(NCC1(N2CCCCC2)CCCCC1)c1cccc(C(F)(F)F)c1`, the inhibition is inactive: 0.051%.

Regarding `COc1ccc(NC2CCN(C(=O)OC(C)(C)C)CC2)cc1`, the inhibition is inactive: 1.78%.

As to `CC(C)c1ccc(C(=O)NCC2(N3CCOCC3)CCCCC2)cc1`, the inhibition is inactive: 6.98%.

Regarding `CN1CCN(CCOC(=O)C(O)(c2ccccc2)c2ccccc2)CC1`, the inhibition is inactive: -3.51%.

On to `O=C(NCC1(N2CCOCC2)CCCCC1)c1cc(=O)[nH]c2ccccc12`, for which the inhibition is inactive: -8.94%.

Turning to `COc1cc(C(=O)NCC2(N3CCCCC3)CCCCC2)ccc1OC(F)F`, the inhibition is inactive: 5.24%.

As for `CCOc1ccc(C)cc1CN(CCCl)CCCl`, the inhibition was inactive: -7.25%.

With `CCCCOc1ccc(C(=O)NCC2(N3CCOCC3)CCCCC2)cc1`, the inhibition is inactive: 2.44%.

For `O=C(NCC1(N2CCCCC2)CCCCC1)c1ccc(F)cc1`, the inhibition is inactive: -8.33%.

`CCOC(=O)N1CCC(Nc2ccc(F)cc2)CC1`: the inhibition is inactive: 6.65%.

As to `COc1ccc(NC2CCN(CCc3ccccc3)CC2)c(OC)c1`, the inhibition was inactive: -9.97%.

Consider `CCOC(=O)N1CCC(Nc2cccc(C)c2)CC1`, for which the inhibition was inactive: 10.1%.

For `Cc1ccc(OCC(C)C)c(CN(CCCl)CCCl)c1`, the inhibition was inactive: -1.09%.

Consider `O=C(NCC1(N2CCCCC2)CCCCC1)c1ccc(=O)[nH]c1`, for which the inhibition is inactive: -0.686%.

In the case of `O=C(NCC1(N2CCCCC2)CCCCC1)c1cccs1`, the inhibition was inactive: 3.78%.

Regarding `COc1ccc(C(=O)NCC2(N3CCCCC3)CCCCC2)cc1`, the inhibition is inactive: 0.71%.

As to `COc1ccc(C(=O)NCC2(N3CCCCC3)CCCCC2)c(OC)c1OC`, the inhibition was inactive: 4.37%.

Take `CC(C)(C)OC(=O)N1CCC(N(C(=O)c2ccccc2)c2ccc(F)cc2)CC1`: the inhibition is inactive: -0.944%.

On to `CSc1ccccc1C(=O)NCC1(N2CCCCC2)CCCCC1`, for which the inhibition was inactive: 4.8%.

In the case of `O=C(NCC1(N2CCOCC2)CCCCC1)c1cc2ccccc2o1`, the inhibition is inactive: 8.34%.

With `O=C(NCC1(N2CCCCC2)CCCCC1)c1ccc(Cl)nc1`, the inhibition is inactive: -2.59%.

Turning to `Cc1cc(C)cc(N(C(=O)c2ccccc2)C2CCN(C(=O)OC(C)(C)C)CC2)c1`, the inhibition was inactive: -4.52%.

As to `CCOC(=O)N1CCC(Nc2ccc(OC)cc2)CC1`, the inhibition was inactive: -11.1%.

On to `N#CC1(Nc2ccccc2)CCN(Cc2ccccc2)CC1`, for which the inhibition is inactive: 5.56%.

Turning to `O=C(NCC1(N2CCCCC2)CCCCC1)c1ccc(Cl)s1`, the inhibition was inactive: -1.07%.

Consider `O=C(OC1CN2CCC1CC2)C1c2ccccc2Oc2ccccc21` (configuration not stated), for which the inhibition is inactive: -9.09%.

`COc1ccc(Cl)cc1C(=O)NCC1(N2CCOCC2)CCCCC1`: the inhibition was inactive: -0.199%.

As to `CCOc1ncccc1C(=O)NCC1(N2CCOCC2)CCCCC1`, the inhibition was inactive: -0.495%.

Take `CN1CCC(Nc2ccc(F)c(Cl)c2)CC1`: the inhibition is inactive: -5.92%.

As to `CCCOc1ccc(C(=O)NCC2(N(C)C)CCCCC2)cc1`, the inhibition is inactive: 2.21%.

On to `CC(C)(C)OC(=O)N1CCC(Nc2ccccc2)CC1`, for which the inhibition is inactive: -3.8%.

With `O=C(O)C1(Nc2ccccc2)CCN(Cc2ccccc2)CC1`, the inhibition is inactive: -10.7%.

On to `CCC(CO)(C(=O)OC1CN2CCC1CC2)c1ccccc1` (configuration not stated), for which the inhibition was inactive: -1.36%.

Consider `COc1cccc(C(=O)N(c2cc(C)cc(C)c2)C2CCN(C(=O)OC(C)(C)C)CC2)c1`, for which the inhibition is inactive: -6.99%.

Regarding `COc1cc(OC)cc(C(=O)NCC2(N3CCOCC3)CCCCC2)c1`, the inhibition is inactive: -11.5%.

For the compound `CCCOc1ccc(C)cc1CN(CCCl)CCCl`, the inhibition was inactive: -1.09%.

Regarding `CN1CCC(Nc2ccc(Cl)cc2)CC1`, the inhibition was inactive: -2.73%.

As to `COc1cc(OC)cc(C(=O)NCC2(N3CCCCC3)CCCCC2)c1`, the inhibition was inactive: -0.95%.

`Cc1ccc(C(=O)NCC2(N3CCCCC3)CCCCC2)o1`: the inhibition was inactive: 9.81%.

In the case of `Fc1ccccc1NC1CCN(Cc2ccccc2)CC1`, the inhibition was inactive: -12.9%.

For `CCN1CCC(Nc2cccc(F)c2)CC1`, the inhibition was inactive: 0.261%.

As for `O=C(NCC1(N2CCCCC2)CCCCC1)c1ccco1`, the inhibition was inactive: -16.4%.

With `CN(C)c1ccc(C(=O)NCC2(N3CCCCC3)CCCCC2)cc1`, the inhibition was inactive: 4.55%.

Turning to `CC(C)(C)OC(=O)N1CCC(N(C(=O)c2ccccc2)c2ccc(Cl)cc2)CC1`, the inhibition was inactive: 1.85%.

Turning to `N#Cc1ccc(C(=O)NCC2(N3CCCCC3)CCCCC2)cc1`, the inhibition is inactive: -1.22%.

With `c1ccc(CN2CCC(Nc3ccccc3)CC2)cc1`, the inhibition was inactive: -10.9%.

On to `CCCN1CCC(Nc2cc(OC)cc(OC)c2)CC1`, for which the inhibition was inactive: -4.31%.

For `CN(C)C1(CNC(=O)c2cccc(C#N)c2)CCCCC1`, the inhibition is inactive: -3.29%.

With `O=C(NCC1(N2CCOCC2)CCCCC1)c1cc(Br)ccc1Cl`, the inhibition is inactive: -6.08%.

Take `COc1cc(C(=O)NCC2(N3CCOCC3)CCCCC2)cc(OC)c1C`: the inhibition was inactive: -1.14%.

As to `COc1ccc(C(=O)NCC2(N3CCOCC3)CCCCC2)cc1OC`, the inhibition is inactive: -3.95%.

For the compound `N/C(=N\O)c1c(N)no[n+]1[O-]`, the inhibition was inactive: -8.3%.

Take `CCOC(=O)N1CCC(Nc2ccc(C)cc2)CC1`: the inhibition is inactive: -3.23%.

`CCc1cc(C(=O)NCC2(N3CCCCC3)CCCCC2)sc1C`: the inhibition is inactive: 6.81%.

As for `O=C(OC1CN2CCC1CC2)C1c2ccccc2C=Cc2ccccc21` (configuration not stated), the inhibition is inactive: -4.2%.

The values are drawn from PubChem BioAssay AID2540 (Sanford-Burnham Center for Chemical Genomics, 2010).
